# Data taken from paper PMC10008561 (Nature Communications, 2023).
# Protein sequences, listed by entry. Tags and fused reporters are not part of them.
# UniProt P41145, whole entry K227A: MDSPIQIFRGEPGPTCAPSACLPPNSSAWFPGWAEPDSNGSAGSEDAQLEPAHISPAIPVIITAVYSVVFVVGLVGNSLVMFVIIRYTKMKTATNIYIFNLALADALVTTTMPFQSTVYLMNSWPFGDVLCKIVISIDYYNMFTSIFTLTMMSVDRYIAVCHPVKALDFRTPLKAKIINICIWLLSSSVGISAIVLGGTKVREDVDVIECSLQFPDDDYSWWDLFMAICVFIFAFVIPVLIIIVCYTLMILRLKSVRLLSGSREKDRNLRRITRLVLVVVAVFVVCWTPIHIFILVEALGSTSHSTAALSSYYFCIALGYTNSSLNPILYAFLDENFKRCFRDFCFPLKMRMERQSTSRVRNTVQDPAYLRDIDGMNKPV
# UniProt P41145, whole entry G319L: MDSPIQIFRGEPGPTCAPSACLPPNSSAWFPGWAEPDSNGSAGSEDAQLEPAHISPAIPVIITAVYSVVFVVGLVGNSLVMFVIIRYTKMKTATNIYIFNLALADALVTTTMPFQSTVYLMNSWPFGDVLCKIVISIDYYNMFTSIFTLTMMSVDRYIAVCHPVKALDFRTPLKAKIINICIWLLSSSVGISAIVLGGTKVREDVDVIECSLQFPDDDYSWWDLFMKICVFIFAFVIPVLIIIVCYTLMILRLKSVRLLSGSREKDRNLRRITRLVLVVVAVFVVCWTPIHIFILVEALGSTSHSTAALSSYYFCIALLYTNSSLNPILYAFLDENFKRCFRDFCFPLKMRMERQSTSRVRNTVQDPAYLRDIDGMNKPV
# UniProt P41145, whole entry R257A: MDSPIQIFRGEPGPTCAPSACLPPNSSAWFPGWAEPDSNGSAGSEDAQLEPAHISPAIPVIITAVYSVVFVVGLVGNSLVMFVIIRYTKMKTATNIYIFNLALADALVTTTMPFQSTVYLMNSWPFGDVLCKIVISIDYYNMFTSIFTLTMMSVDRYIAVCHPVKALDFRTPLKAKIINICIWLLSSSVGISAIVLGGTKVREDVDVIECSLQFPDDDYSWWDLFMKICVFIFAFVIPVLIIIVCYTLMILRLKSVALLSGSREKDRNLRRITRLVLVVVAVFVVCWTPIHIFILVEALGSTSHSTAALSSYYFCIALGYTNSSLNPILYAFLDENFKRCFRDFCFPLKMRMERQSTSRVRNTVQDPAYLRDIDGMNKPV
# UniProt P41145, whole entry T94V: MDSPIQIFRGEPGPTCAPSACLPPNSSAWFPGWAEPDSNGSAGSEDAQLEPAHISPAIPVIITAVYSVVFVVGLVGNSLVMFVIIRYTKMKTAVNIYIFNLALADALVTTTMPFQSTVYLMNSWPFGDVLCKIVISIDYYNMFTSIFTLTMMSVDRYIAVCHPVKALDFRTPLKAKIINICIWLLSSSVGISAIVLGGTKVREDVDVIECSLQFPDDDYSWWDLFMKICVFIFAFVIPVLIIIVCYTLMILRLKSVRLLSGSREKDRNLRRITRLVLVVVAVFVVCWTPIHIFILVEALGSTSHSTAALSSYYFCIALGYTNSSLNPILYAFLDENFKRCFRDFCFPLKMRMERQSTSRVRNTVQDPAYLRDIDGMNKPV
# UniProt P41145, whole entry Y139L: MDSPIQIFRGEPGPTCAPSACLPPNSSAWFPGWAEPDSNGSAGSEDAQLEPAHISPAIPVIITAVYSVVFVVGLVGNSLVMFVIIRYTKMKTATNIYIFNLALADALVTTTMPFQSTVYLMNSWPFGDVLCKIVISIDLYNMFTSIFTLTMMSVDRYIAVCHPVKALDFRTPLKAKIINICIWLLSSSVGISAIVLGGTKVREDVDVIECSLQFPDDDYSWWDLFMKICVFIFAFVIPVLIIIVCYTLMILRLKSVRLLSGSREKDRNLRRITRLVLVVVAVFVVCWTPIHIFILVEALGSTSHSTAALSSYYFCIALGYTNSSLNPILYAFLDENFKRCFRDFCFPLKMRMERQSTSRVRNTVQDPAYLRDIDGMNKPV
# UniProt P41145, whole entry R271A: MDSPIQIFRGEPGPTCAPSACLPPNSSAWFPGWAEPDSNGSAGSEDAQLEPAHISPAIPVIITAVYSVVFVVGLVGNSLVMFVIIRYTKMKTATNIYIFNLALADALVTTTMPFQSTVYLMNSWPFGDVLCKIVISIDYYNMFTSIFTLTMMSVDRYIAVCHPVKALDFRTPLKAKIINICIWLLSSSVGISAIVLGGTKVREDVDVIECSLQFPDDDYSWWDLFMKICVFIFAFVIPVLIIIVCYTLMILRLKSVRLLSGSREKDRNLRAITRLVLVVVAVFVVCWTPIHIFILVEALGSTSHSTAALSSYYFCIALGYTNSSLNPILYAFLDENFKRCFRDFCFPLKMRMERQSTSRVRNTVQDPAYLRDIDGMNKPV
# UniProt P41145, whole entry D266A: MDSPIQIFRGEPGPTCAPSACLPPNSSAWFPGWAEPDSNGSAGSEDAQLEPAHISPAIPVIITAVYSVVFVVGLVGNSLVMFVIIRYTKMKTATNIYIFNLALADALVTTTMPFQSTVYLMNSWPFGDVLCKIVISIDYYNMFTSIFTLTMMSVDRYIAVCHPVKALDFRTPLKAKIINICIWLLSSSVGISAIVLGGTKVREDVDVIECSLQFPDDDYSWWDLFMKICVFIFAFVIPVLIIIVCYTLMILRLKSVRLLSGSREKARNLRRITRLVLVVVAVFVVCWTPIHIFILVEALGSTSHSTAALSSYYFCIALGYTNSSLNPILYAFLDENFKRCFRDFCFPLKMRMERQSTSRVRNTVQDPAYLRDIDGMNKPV
# UniProt P41145, whole entry V134A: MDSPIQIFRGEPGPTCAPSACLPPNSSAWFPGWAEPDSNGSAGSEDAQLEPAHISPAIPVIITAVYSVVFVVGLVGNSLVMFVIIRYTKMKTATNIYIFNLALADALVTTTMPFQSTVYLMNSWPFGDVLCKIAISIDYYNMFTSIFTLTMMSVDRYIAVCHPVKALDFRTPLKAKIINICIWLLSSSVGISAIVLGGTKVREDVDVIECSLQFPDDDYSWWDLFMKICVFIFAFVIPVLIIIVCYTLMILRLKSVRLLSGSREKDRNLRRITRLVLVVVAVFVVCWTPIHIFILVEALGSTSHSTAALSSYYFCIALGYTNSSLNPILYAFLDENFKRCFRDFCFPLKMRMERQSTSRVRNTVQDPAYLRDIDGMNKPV
# UniProt P41145, whole entry W124L: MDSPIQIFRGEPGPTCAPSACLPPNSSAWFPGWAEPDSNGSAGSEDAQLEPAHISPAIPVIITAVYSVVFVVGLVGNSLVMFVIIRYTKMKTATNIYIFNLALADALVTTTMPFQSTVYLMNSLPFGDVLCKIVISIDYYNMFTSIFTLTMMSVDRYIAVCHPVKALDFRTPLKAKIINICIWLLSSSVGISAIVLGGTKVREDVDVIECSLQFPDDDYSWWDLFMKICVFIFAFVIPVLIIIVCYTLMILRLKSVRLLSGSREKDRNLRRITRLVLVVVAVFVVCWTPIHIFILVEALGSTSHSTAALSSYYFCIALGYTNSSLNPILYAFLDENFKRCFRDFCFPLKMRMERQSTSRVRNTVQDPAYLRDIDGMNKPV
# UniProt P41145, whole entry D138A: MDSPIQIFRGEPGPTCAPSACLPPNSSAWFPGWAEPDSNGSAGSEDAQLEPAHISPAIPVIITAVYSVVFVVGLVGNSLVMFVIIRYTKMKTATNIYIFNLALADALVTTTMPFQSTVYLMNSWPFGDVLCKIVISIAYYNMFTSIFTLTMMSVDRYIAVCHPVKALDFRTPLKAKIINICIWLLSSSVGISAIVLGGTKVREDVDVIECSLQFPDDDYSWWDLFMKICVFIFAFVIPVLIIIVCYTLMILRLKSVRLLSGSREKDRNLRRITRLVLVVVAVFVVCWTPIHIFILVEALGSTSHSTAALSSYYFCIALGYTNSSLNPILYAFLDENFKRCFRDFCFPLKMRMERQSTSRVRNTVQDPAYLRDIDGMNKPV
# UniProt P41145, whole entry F114L: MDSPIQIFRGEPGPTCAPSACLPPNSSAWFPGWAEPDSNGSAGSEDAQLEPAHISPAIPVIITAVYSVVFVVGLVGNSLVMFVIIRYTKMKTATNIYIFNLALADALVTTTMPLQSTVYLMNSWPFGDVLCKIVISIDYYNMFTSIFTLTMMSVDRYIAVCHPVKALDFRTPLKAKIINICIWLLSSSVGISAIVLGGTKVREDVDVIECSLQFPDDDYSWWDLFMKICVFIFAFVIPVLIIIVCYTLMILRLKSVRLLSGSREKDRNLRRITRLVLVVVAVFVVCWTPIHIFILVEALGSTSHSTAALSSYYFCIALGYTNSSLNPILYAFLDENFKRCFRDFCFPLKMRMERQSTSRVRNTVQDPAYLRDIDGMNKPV
# UniProt P41145, whole entry R170A: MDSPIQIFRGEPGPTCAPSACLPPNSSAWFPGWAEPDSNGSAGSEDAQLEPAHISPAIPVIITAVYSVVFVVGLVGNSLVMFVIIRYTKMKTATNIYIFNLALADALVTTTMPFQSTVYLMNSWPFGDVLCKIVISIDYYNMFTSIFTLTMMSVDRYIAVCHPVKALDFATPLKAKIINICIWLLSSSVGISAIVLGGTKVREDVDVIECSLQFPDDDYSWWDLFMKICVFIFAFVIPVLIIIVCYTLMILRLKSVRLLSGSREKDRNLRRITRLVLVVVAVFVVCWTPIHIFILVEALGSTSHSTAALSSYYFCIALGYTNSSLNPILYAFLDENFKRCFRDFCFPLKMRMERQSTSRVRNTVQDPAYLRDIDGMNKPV
# UniProt P41145, whole entry Q115N: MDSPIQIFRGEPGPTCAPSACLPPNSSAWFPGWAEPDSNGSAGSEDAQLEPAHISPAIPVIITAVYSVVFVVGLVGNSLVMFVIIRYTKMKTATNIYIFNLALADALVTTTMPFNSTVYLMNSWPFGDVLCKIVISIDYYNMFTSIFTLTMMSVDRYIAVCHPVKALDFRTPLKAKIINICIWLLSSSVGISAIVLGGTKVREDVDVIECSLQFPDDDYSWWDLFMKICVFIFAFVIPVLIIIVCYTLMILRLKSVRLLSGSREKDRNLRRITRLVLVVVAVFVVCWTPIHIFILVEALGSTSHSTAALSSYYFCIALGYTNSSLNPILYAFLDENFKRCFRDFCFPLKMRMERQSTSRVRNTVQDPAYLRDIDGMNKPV
# UniProt P41145, whole entry E297A: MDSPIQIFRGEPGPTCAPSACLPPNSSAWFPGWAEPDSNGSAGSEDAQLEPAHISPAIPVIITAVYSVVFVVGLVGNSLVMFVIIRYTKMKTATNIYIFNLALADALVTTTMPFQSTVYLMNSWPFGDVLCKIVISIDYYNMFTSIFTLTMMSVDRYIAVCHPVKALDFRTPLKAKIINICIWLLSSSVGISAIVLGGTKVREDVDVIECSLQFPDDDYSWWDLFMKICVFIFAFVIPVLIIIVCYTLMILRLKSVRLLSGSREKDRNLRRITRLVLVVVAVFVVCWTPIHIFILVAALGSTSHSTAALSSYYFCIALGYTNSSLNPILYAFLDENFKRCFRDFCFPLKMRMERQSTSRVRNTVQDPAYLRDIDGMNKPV
# UniProt P41145, whole entry N322A: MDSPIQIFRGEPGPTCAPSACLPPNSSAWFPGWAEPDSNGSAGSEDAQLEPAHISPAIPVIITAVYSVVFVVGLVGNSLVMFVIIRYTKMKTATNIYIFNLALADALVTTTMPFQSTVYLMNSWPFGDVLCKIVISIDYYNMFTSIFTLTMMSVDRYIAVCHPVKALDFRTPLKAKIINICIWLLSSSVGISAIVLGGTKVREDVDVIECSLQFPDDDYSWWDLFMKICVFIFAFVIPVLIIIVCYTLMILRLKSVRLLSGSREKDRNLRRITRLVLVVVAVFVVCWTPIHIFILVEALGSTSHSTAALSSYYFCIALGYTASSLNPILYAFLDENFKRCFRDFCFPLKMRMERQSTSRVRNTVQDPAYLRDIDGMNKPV
# UniProt P41145, whole entry D105A: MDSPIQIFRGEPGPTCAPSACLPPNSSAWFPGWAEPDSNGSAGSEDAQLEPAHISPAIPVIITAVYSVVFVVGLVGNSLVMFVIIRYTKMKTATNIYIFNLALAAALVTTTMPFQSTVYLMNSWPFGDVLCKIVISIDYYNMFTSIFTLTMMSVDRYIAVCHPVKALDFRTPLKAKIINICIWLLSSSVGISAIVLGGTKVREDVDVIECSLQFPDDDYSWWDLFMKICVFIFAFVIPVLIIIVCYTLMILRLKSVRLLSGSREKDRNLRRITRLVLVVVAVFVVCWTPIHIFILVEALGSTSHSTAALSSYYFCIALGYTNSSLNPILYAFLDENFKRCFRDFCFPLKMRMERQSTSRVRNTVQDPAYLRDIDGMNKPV
# UniProt P41145, whole entry R274A: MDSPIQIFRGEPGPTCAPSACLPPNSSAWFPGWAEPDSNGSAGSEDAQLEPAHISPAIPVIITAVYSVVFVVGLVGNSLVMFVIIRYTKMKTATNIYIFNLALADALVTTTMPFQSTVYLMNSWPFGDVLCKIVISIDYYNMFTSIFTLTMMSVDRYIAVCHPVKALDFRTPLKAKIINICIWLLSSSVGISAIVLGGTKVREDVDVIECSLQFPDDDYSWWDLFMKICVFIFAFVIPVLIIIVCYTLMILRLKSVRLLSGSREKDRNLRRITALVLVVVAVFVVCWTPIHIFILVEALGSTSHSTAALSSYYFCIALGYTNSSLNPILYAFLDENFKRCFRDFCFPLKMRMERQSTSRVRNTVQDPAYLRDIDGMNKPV
# Values joined by “and” are separate entries in the source; they are usually repeats but may differ in a detail not shown here. Identical values can stand only once. Like-named read-outs stand apart in the source and are kept apart here.
# Assays:
# human KOR (Gz) [1] = molecular target: T1, human KOR (Gz) (Homo sapiens, UniProt P41145, K227A); test: cell-based; settings: HEK-293T
# T1 construct: expressed in transfected cells; host or cells: HEK293T
# human KOR (Gz) [2] = molecular target: T2, human KOR (Gz) (Homo sapiens, UniProt P41145); test: cell-based
# T2 construct: expressed in transfected cells; host or cells: HEK293T
# human KOR (Gz) [3] = molecular target: T3, human KOR (Gz) (Homo sapiens, UniProt P41145, G319L); test: cell-based; settings: HEK-293T
# T3 construct: expressed in transfected cells; host or cells: HEK293T
# human KOR (Gz) [4] = molecular target: T4, human KOR (Gz) (Homo sapiens, UniProt P41145, R257A); test: cell-based; settings: HEK-293T
# T4 construct: expressed in transfected cells; host or cells: HEK293T
# human KOR (Gz) [5] = molecular target: T5, human KOR (Gz) (Homo sapiens, UniProt P41145, T94V); test: cell-based; settings: HEK-293T
# T5 construct: expressed in transfected cells; host or cells: HEK293T
# human KOR (GoB) [6] = molecular target: T6, human KOR (GoB) (Homo sapiens, UniProt P41145, Y139L); test: cell-based; settings: HEK-293T
# T6 construct: expressed in transfected cells; host or cells: HEK293T
# human KOR (GoB) [7] = molecular target: T7, human KOR (GoB) (Homo sapiens, UniProt P41145, R271A); test: cell-based; settings: HEK-293T
# T7 construct: expressed in transfected cells; host or cells: HEK293T
# human KOR (GoB) [8] = molecular target: T8, human KOR (GoB) (Homo sapiens, UniProt P41145, D266A); test: cell-based; settings: HEK-293T
# T8 construct: expressed in transfected cells; host or cells: HEK293T
# human KOR [9] = molecular target: T9, human KOR (Homo sapiens, UniProt P41145, V134A); test: cell-based; settings: HEK-293T, read-out: cAMP response
# T9 construct: expressed in transfected cells; host or cells: HEK 293T (ATCC, CRL-3216)
# human KOR [10] = molecular target: T10, human KOR (Homo sapiens, UniProt P41145, W124L); test: cell-based; settings: HEK-293T, read-out: cAMP response
# T10 construct: expressed in transfected cells; host or cells: HEK 293T (ATCC, CRL-3216)
# human KOR [11] = molecular target: T11, human KOR (Homo sapiens, UniProt P41145, G319L); test: cell-based; settings: HEK-293T, read-out: cAMP response
# T11 construct: expressed in transfected cells; host or cells: HEK 293T (ATCC, CRL-3216)
# human KOR [12] = molecular target: T12, human KOR (Homo sapiens, UniProt P41145, D138A); test: cell-based; settings: HEK-293T
# T12 construct: expressed in transfected cells; host or cells: HEK 293T (ATCC, CRL-3216)
# human KOR [13] = molecular target: T12, human KOR; test: cell-based; settings: HTLA
# KOR [14] = molecular target: T13, KOR (Homo sapiens, UniProt P41145)
# human KOR (Gi3) [15] = molecular target: T14, human KOR (Gi3) (Homo sapiens, UniProt P41145, F114L); test: cell-based; settings: HEK-293T
# T14 construct: expressed in transfected cells; host or cells: HEK293T
# human KOR (Gi3) [16] = molecular target: T15, human KOR (Gi3) (Homo sapiens, UniProt P41145, R170A); test: cell-based; settings: HEK-293T
# T15 construct: expressed in transfected cells; host or cells: HEK293T
# KOR Q115N = KOR Q115N (Homo sapiens, UniProt P41145, Q115N); test: cell-based; set-up: TEV cleavage site (C); tTA transcription factor (C); expressed in transfected cells; host or cells: HTLA cells; settings: read-out: Tango response (Figure S4C), KOR Q115N; Log [Drug], M -6; replicate values
# human KOR (Gi1) [17] = molecular target: T16, human KOR (Gi1) (Homo sapiens, UniProt P41145, K227A); test: cell-based; settings: HEK-293T
# T16 construct: expressed in transfected cells; host or cells: HEK293T
# human KOR (Gi1) [18] = molecular target: T17, human KOR (Gi1) (Homo sapiens, UniProt P41145, E297A); test: cell-based; settings: HEK-293T
# T17 construct: expressed in transfected cells; host or cells: HEK293T
# human KOR (Gi1) [19] = molecular target: T18, human KOR (Gi1) (Homo sapiens, UniProt P41145, N322A); test: cell-based; settings: HEK-293T
# T18 construct: expressed in transfected cells; host or cells: HEK293T
# human KOR (Gi2) [20] = molecular target: T19, human KOR (Gi2) (Homo sapiens, UniProt P41145, D105A); test: cell-based
# T19 construct: expressed in transfected cells; host or cells: HEK293T
# human KOR (Gi2) [21] = molecular target: T20, human KOR (Gi2) (Homo sapiens, UniProt P41145, R274A); test: cell-based
# T20 construct: expressed in transfected cells; host or cells: HEK293T
# human KOR (Gi2) [22] = molecular target: T21, human KOR (Gi2) (Homo sapiens, UniProt P41145, Y139L); test: cell-based; settings: HEK-293T
# T21 construct: expressed in transfected cells; host or cells: HEK293T
# human KOR (β-arrestin 1) [23] = molecular target: T22, human KOR (β-arrestin 1) (Homo sapiens, UniProt P41145, D266A); test: cell-based; settings: HEK-293T
# T22 construct: expressed in transfected cells; host or cells: HEK293T
# human KOR (β-arrestin 2) [24] = molecular target: T23, human KOR (β-arrestin 2) (Homo sapiens, UniProt P41145, D105A); test: cell-based; settings: HEK-293T
# T23 construct: expressed in transfected cells; host or cells: HEK293T
# human KOR (GoA) [25] = molecular target: T24, human KOR (GoA) (Homo sapiens, UniProt P41145, Y320L); test: cell-based
# T24 construct: expressed in transfected cells; host or cells: HEK293T
# human KOR (GoA) [26] = molecular target: T25, human KOR (GoA) (Homo sapiens, UniProt P41145, D105A); test: cell-based; settings: HEK-293T
# T25 construct: expressed in transfected cells; host or cells: HEK293T
# human KOR (GoA) [27] = molecular target: T26, human KOR (GoA) (Homo sapiens, UniProt P41145, R257A); test: cell-based; settings: HEK-293T
# T26 construct: expressed in transfected cells; host or cells: HEK293T
# human KOR (GoA) [28] = molecular target: T27, human KOR (GoA) (Homo sapiens, UniProt P41145, Y139L); test: cell-based; settings: HEK-293T
# T27 construct: expressed in transfected cells; host or cells: HEK293T
# KOR [29] = molecular target: T13, KOR; test: cell-based; set-up: expressed in transfected cells; host or cells: HEK 293T (ATCC, CRL-3216); settings: for activation at 0.01 µM / activation at […]: HEK-293T
# KOR [30] = molecular target: T13, KOR; test: cell-based; set-up: expressed in transfected cells; host or cells: HEK 293T (ATCC, CRL-3216)
# human KOR (Gustducin) = molecular target: T28, human KOR (Gustducin) (Homo sapiens, UniProt P41145); test: cell-based
# T28 construct: expressed in transfected cells; host or cells: HEK293T
# human KOR (GoB) [31] = molecular target: T29, human KOR (GoB) (Homo sapiens, UniProt P41145); test: cell-based
# T29 construct: expressed in transfected cells; host or cells: HEK293T
# KOR [32] = molecular target: T13, KOR; test: cell-based; settings: potency in G protein activation
# human KOR [33] = molecular target: T30, human KOR (Homo sapiens, UniProt P41145, W287A); test: cell-based; settings: pEC50
# T30 construct: expressed in transfected cells; host or cells: HEK 293T (ATCC, CRL-3216)
# human KOR [34] = molecular target: T31, human KOR (Homo sapiens, UniProt P41145, Q115N); test: cell-based; settings: pEC50
# T31 construct: expressed in transfected cells; host or cells: HEK 293T (ATCC, CRL-3216)
# human KOR [35] = molecular target: T30, human KOR; test: cell-based; settings: pEC50; remark: listed apart in the source
# human KOR [36] = molecular target: T31, human KOR; test: cell-based; settings: pEC50; remark: listed apart in the source
# human KOR (Gi3) [37] = molecular target: T32, human KOR (Gi3) (Homo sapiens, UniProt P41145); test: cell-based
# T32 construct: expressed in transfected cells; host or cells: HEK293T
# human KOR (Gi1) [38] = molecular target: T33, human KOR (Gi1) (Homo sapiens, UniProt P41145); test: cell-based; settings: pEC50
# T33 construct: expressed in transfected cells; host or cells: HEK293T
# human KOR (Gi2) [39] = molecular target: T34, human KOR (Gi2) (Homo sapiens, UniProt P41145); test: cell-based
# T34 construct: expressed in transfected cells; host or cells: HEK293T
# human KOR (β-arrestin 1) [40] = molecular target: T35, human KOR (β-arrestin 1) (Homo sapiens, UniProt P41145); test: cell-based
# T35 construct: expressed in transfected cells; host or cells: HEK293T
# human KOR (β-arrestin 2) [41] = molecular target: T36, human KOR (β-arrestin 2) (Homo sapiens, UniProt P41145); test: cell-based; settings: pEC50
# T36 construct: expressed in transfected cells; host or cells: HEK293T
# human KOR (GoA) [42] = molecular target: T37, human KOR (GoA) (Homo sapiens, UniProt P41145); test: cell-based
# T37 construct: expressed in transfected cells; host or cells: HEK293T
# [43] = read-out: KOR WT_Gi response (Figure S4D)
# [44] = read-out: cAMP response (Figure S4C)
compound,measurement,setting,value
"CN(C(=O)/C=C/c1ccoc1)[C@@H]1CC[C@@]2(O)[C@H]3Cc4ccc(O)c5c4[C@@]2(CCN3CC2CC2)[C@H]1O5 [Nalfurafine, nalfurafine]",Emax,human KOR (Gz) [1],102%
same,activation at 0.0001 µM,"human KOR (Gz) [2]; HEK-293T, read-out: Gz (Figure 5A concentration-response, replicate values)",81.7%
same,Emax,human KOR (Gz) [3],115%
same,Emax,human KOR (Gz) [4],102%
same,Emax,human KOR (Gz) [5],102%
same,Emax,human KOR (GoB) [6],102%
same,Emax,human KOR (GoB) [7],102%
same,Emax,human KOR (GoB) [8],102%
same,activation at 1 pM,human KOR [9],10.2%
same,activation at 1 pM,human KOR [10],8.68%
same,activation at 10 pM,human KOR [11],18.2%
same,activation at […],human KOR [11],102%
same,Emax,human KOR [12],102 ± 4%
same,Emax,human KOR [13],102 ± 7%
same,increase in binding affinity,KOR [14]; with Gi1,10 fold
same,increase in binding affinity,KOR [14]; with Nb39,40 fold
same,Emax,human KOR (Gi3) [15],60.3%
same,Emax,human KOR (Gi3) [16],60.3%
same,activation at 1 µM,KOR Q115N,102%
same,Emax,human KOR (Gi1) [17],102%
same,Emax,human KOR (Gi1) [18],102%
same,Emax,human KOR (Gi1) [19],78.4%
same,FC vs wild type,human KOR (Gi2) [20],234
same,FC vs wild type,human KOR (Gi2) [21],102
same,Emax,human KOR (Gi2) [21]; HEK-293T,102%
same,Emax,human KOR (Gi2) [22],102%
same,Emax,human KOR (β-arrestin 1) [23],102%
same,Emax,human KOR (β-arrestin 2) [24],95.4%
same,FC vs wild type,human KOR (GoA) [25],457
same,Emax,human KOR (GoA) [26],102%
same,Emax,human KOR (GoA) [27],102%
same,Emax,human KOR (GoA) [28],102%
same,activation at 0.01 µM,KOR [29]; [43],102%
same,activation at […],KOR [29]; [43],101%
same,activation at 0.01 µM,KOR [29]; read-out: cAMP response,102%
same,activation at […],KOR [29]; read-out: cAMP response,102%
same,activation at 0.01 µM,KOR [29]; [44],102%
same,activation at […],KOR [29]; [44],101%
same,activation at 10 µM,"KOR [30]; HTLA, read-out: Tango response",103%
same,activation at […],"KOR [30]; HTLA, read-out: Tango response",101% and 102%
same,activation at […],"KOR [30]; HTLA, read-out: Tango response (Figure S4C)",84.5%
COC(=O)N1CCN(C(=O)Cc2ccc(Cl)c(Cl)c2)C2C(N3CCCC3)CCCC21 (stereo not drawn) [WMS-X600],EC50,human KOR (Gustducin),4900 pM
same,EC50,human KOR (Gz) [2],97.7 pM
same,EC50,human KOR (GoB) [31],191 pM
same,EC50,KOR [32],108000 pM
same,EC50,human KOR [33],110000 pM
same,EC50,human KOR [34],6.92 pM
same,EC50,human KOR [35],302000 pM
same,EC50,human KOR [36],77.6 pM
same,EC50,human KOR (Gi3) [37],646 pM
same,EC50,human KOR (Gi1) [38],1410 pM and 282 pM
same,EC50,human KOR (Gi2) [39],646 pM
same,EC50,human KOR (β-arrestin 1) [40],52500 pM
same,EC50,human KOR (β-arrestin 2) [41],30900 pM and 8910 pM
same,EC50,human KOR (GoA) [42],513 pM
same,EC50,KOR [29]; pEC50,105 pM and 102 pM and 132 pM
same,EC50,KOR [30]; pEC50,468 pM and 372 pM and 513 pM
